Test [1] has as its target recombinant purified β2 subunit (Homo sapiens, UniProt P05107). Kind of test: Solid-phase binding to purified β2 subunit. Summed up:
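Purified recombinant αMβ2, αM or β2 (from HEK293 lines) was coated overnight at 4°C in TBS with 10 mM n-octyl-β-D-glucopyranoside and postcoated with 0.5% PVP for 1 h at 37°C. Biotinylated Plg or Ang(1–4) (0–10 μM) was bound for 2 h at 37°C in the same buffer plus 1 mM CaCl₂/MgCl₂. Binding was detected with alkaline phosphatase–avidin and pNPP at A405. Kd came from a one-site binding fit.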

The test system of another test is human PMNs. The settings on record: 16 h, 100 μM.

Some results are limits rather than exact numbers.

With `CC(C)C[C@H](NC(=O)[C@H](CCCNC(=N)N)NC(=O)[C@H](CCCCN)NC(=O)[C@H](CCC(N)=O)NC(=O)[C@H](Cc1ccccc1)NC(=O)[C@@H](NC(=O)[C@@H](NC(=O)[C@H](Cc1c[nH]c2ccccc12)NC(=O)CN)[C@@H](C)O)C(C)C)C(=O)N[C@@H](CC(=O)O)C(=O)NCC(=O)N[C@@H](CO)C(=O)N[C@H](C(=O)O)C(C)C` [P1], in test [1], the Kd was above 100 µM. In the test with human PMNs, the “PMN early/late apoptosis (% annexin V+ cells), no inhibitor” value worked out at 56.1 ± 13%.

By Kd is commonly meant the free concentration of one partner at which half of the binding sites on the other are occupied at equilibrium, for simple one-to-one binding.
